Laboratory results taken from patent US6656972B2, “Control of pain with endogenous cannabinoids” (Neurosciences Research Foundation, Inc., priority 1998, dated 2003).

Experiment: Solubility in the injection vehicle (10% DMSO)
Conditions: 10% DMSO in saline

In the case of “N-[(1S)-endo-1,3,3-trimethyl bicyclo [2.2.1]heptan-2-yl]-5-(4-chloro-3-methylphenyl)-1-(4-methylbenzyl)-pyrazole-3-carboxamide [SR144528]”, the “solubility in the injection vehicle” value is reported as “not soluble; also recorded: limited solubility”.

Entries after “also recorded” stand apart in the source; their conditions may differ.
